In general, pIC50 refers to the IC50 on a negative log10 scale, so that one unit is a factor of ten. High values mean a low IC50, low ones a high IC50. By IC50 is commonly meant the point on the concentration scale where inhibition reaches its midpoint. A lower IC50 goes with inhibition by little substance.

Protein sequences, listed by entry. Tags and fused reporters are not part of them. Lines headed by an entry give the natural chain unless they say otherwise; changes in a name come on top.
UniProt Q12809: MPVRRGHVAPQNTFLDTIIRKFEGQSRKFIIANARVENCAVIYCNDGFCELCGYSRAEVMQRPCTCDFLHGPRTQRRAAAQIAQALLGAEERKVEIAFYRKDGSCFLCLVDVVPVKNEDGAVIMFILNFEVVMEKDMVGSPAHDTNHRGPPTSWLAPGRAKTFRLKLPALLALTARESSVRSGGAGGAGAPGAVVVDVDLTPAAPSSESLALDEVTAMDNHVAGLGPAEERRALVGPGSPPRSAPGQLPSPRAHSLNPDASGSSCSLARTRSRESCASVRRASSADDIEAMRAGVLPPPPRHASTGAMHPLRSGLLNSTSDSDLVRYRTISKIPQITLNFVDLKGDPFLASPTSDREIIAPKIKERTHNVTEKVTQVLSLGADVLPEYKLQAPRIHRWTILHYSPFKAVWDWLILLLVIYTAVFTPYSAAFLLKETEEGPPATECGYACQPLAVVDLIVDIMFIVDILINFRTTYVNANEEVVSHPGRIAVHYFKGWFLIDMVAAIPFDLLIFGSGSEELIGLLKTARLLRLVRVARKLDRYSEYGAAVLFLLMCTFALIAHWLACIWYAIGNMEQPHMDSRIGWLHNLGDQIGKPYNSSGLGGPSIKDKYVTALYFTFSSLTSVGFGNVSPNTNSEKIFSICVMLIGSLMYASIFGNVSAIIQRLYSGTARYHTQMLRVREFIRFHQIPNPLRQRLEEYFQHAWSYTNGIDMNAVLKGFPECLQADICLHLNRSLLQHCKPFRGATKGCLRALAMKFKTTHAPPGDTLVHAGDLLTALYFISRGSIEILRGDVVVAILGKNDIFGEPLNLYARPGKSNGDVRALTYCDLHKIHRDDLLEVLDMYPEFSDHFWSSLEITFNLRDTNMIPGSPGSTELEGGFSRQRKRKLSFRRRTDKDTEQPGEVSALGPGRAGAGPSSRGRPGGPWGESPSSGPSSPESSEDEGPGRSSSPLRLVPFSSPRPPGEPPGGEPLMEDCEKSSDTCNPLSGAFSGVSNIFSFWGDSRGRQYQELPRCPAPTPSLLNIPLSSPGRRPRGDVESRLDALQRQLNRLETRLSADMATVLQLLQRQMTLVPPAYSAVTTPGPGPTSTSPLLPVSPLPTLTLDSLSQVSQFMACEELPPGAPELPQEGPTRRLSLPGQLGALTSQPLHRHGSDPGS

pIC50: −log10 of the molar value.

The target in series [1] is T1, hERG (Homo sapiens, UniProt Q12809). The series is described as follows: Tox21 qHTS FluxOR thallium flux assay in hERG-U2OS cells. For orientation: qHTS replaces the single test concentration by a dilution series.
Series [2] concerns the target T1, hERG. Briefly: cell-based. The conditions noted are these: (-LOG10(IC50), µM).

Turning to `CC(C)COCC(CN(Cc1ccccc1)c1ccccc1)N1CCCC1` (stereo not drawn) [Bepridil], the pIC50 at hERG [1] (15 concentrations, three runs) was 6.26. Besides, the “activity outcome for hERG inhibition in the assay” value on hERG [1] (result in words) is “demonstrated activity”. Molecule `Cn1cc(C2=C(c3cn(C4CCN(Cc5ccccn5)CC4)c4ccccc34)C(=O)NC2=O)c2ccccc21` [Enzastaurin] had an IC50 against hERG [2] of 1.51 µM.

The record behind these values is PMC8869358, “High-Throughput Chemical Screening and Structure-Based Models to Predict hERG Inhibition” (Biology, 2022).
